Data published in patent US20230020092A1 (published 2023).

Columns and labels:
Murine DMD exon 23 [1] = assay: Dystrophin exon 23 skipping in MDX mice (RT-PCR); conditions: for Exon 23 Skipping % Diaphragm / Exon 23 Skipping % Heart / Exon 23 Skipping % Quad: MDX, IV
Murine DMD exon 23 [2] = assay: Dystrophin exon 23 skipping in wild type mice (RT-PCR); conditions: for exon 23 skipping in quadriceps, transverse abdominis, diaphragm and heart: IV
dystrophin = assay: Dystrophin protein expression in MDX mice (Western Blot)

Substance	dystrophin mRNA exon 23 correction, dose dependence (Murine DMD exon 23 [1]; MDX mice, 10 mpk or 30 mpk, one week post injection, quadriceps, transverse abdominis, diaphragm, heart)	duration of exon skipping and dystrophin mRNA correction (Murine DMD exon 23 [1]; MDX mice, single IV 30 mpk, 1, 2 or 4 weeks post injection)	Exon 23 Skipping % Diaphragm (Murine DMD exon 23 [1]; 10 mpk, Sac. 1 w) [%]	Exon 23 Skipping % Heart (Murine DMD exon 23 [1]; 10 mpk, Sac. 1 w) [%]	Exon 23 Skipping % Quad (Murine DMD exon 23 [1]; 10 mpk, Sac. 1 w) [%]	Exon 23 Skipping % Diaphragm (Murine DMD exon 23 [1]; 30 mpk, Sac. 2 w) [%]	Exon 23 Skipping % Heart (Murine DMD exon 23 [1]; 30 mpk, Sac. 2 w) [%]	Exon 23 Skipping % Quad (Murine DMD exon 23 [1]; 30 mpk, Sac. 2 w) [%]	dystrophin mRNA lacking exon 23 in local muscle (Murine DMD exon 23 [2]; WT mice (CD1), 24 hr after twice daily IM administration)	exon 23 skipping in quadriceps, transverse abdominis, diaphragm and heart (Murine DMD exon 23 [2]; WT mice (CD1), 8 mpk PMO or 10 mpk CPP12-PMO, five days post injection)	exon 23 skipping in quadriceps, transverse abdominis, diaphragm and heart (Murine DMD exon 23 [2]; wild type mice (C57BL/10), 24 mpk PMO or 30 mpk CPP12-PMO, one-week post injection)	dystrophin level compared to that of PMO^DMD, diaphragm (dystrophin; IV 10 mpk vs 8 mpk PMO, 1 week) [fold]	dystrophin level compared to that of PMO^DMD, heart (dystrophin; IV 10 mpk vs 8 mpk PMO, 1 week) [fold]	dystrophin level compared to that of PMO^DMD, quadriceps (dystrophin; IV 10 mpk vs 8 mpk PMO, 1 week) [fold]	dystrophin level compared to that of PMO^DMD, transverse abdominis (dystrophin; IV 10 mpk vs 8 mpk PMO, 1 week) [fold]	dystrophin expression by western blotting (dystrophin; IV 10 mpk, 1 week post injection)	exon skipping activity in MDX mice, comparison between constructs (in words) (Murine DMD exon 23 [1]; MDX mice, single IV injection)
5'-GGCCAAACCTCGGCTTACCTGAAAT-3'-C3-NH-PEG12-CPP12 (all PMO monomers) (SEQ ID NO: 244)	dose-dependent increased amount of dystrophin mRNA	significant and consistent up to 4 weeks	4.3 ± 0.8	2.2 ± 0.3	13.4 ± 3.7	17.5 ± 5.9	5.0 ± 3.1	24.4 ± 7.4	significant amount of dystrophin mRNA lacking exon 23	significantly increased amount of dystrophin mRNA with skipped exon 23	significantly increased amount of dystrophin mRNA with skipped exon 23	15.7	> 300	2.5	4.8	enhanced dystrophin expression	–
5'-GGCCAAACCTCGGCTTACCTGAAAT-3’-C3-NH-CPP1212; Amide chemistry (all PMO monomers) (SEQ ID NO: 252)	–	–	<10	<1	<1	–	–	–	–	–	–	–	–	–	–	–	significantly reduced activity
